Values of other authors, collected in US20060275250A1, “Reactive polymers and copolymers, method of their preparation and their use” (priority 2003, published 2006).

Conditions: clinical testing; cited from earlier work

N-(2-hydroxypropyl)methacrylamide copolymer doxorubicin [PK1]
MTD relative to clinically used dose of free doxorubicin (60-80 mg/m^2): four-five times more | maximum tolerated dose (MTD): 320 mg/m^2
